Earlier results on one substance are cited in PMC8694095.

Amino acid sequences for entries named in this document (tags omitted). A change or cut given only in a name is not applied to a line headed by its entry. Residues count along the entry.
UniProt P97784: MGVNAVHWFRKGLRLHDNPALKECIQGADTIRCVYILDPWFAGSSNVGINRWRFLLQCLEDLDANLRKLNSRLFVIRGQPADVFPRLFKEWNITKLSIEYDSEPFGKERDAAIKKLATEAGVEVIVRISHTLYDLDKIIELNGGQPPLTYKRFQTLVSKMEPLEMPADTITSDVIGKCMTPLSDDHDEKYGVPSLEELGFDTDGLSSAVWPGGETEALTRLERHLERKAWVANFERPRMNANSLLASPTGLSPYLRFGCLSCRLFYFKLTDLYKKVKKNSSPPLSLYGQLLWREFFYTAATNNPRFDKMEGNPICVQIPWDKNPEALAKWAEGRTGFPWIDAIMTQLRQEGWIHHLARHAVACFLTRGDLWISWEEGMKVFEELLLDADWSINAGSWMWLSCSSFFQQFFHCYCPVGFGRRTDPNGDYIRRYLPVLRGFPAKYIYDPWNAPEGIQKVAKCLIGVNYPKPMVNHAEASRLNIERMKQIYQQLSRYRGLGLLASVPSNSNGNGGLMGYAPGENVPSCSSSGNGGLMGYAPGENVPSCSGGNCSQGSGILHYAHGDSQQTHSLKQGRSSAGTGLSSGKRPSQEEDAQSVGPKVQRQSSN
UniProt O54943, 1132-1252: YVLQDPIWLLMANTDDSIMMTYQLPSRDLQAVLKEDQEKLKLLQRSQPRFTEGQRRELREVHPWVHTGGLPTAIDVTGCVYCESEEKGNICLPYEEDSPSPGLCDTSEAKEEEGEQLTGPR

In the series the target is CRY (UniProt P97784).

As for PER CBD (from UniProt O54943), the Kd (commonly the free concentration of one partner at which half of the binding sites on the other are occupied at equilibrium, for simple one-to-one binding) is 20 nM.
